Measurements reported in ChEMBL document CHEMBL1135155, “Optimization of the beta-aminoester class of factor Xa inhibitors. Part 2: Identification of FXV673 as a potent and selective inhibitor with excellent In vivo anticoagulant activity” (Bioorg Med Chem Lett, 2002).

Test: Selectivity ratio as Ki of Plasmin / Ki of factor Xa

COC(=O)[C@H](Cc1cccc(C(=N)N)c1)[C@@H](C)NC(=O)c1ccc(-c2ccccc2)cc1
Ratio: 87
